Target: TAG-72 antigen on LS174-T cells
Test: cell-based or functional assay

CC49/218 sFv with an engineered oligo-lysine C-terminal tail segment (sixteen lysine residues), clone EN266(7) (scFv)
transfection of LS 174-T cells by reporter plasmid pSEAP2 (secreted alkaline phosphatase chemiluminescence, X-ray film densitometry): 8 fold

Source: patent US20020156248A1
